Data: patent publication US7998985B2, “1,5-diphenyl-3-pyridinylamino-1,5-dihydropyrrolidin-2-one as CB1 receptor modulator” (Eli Lilly and Company, priority 2006, dated 2011)

System: female Sprague-Dawley rats
Assay: Atypical antipsychotic (olanzapine) weight gain model
Assay type: in vivo, rat
Settings: olanzapine 2 mg/kg po once daily for 14 days
Procedure: Methods: Maintain adult lean, female Sprague-Dawley rats ad libitum on normal rodent chow Purina LabDiet 5001 (12.3% fat) and water. Treat one group (n=7) with vehicle (1% lactic acid) on days 1-14 vehicle while treating the rest with olanzapine (2 mg/kg, po). Follow food intake, monitor body weight and change in fat mass over a two week treatment. After 14 days of drug delivery, divide the olanzapine treated animals (n=8 per group) and treat one group with 0.3 mg/kg Example 2 plus olanzapine, treat a second group with 1 mg/kg Example 2 plus olanzapine and treat the final group with vehicle plus olanzapine for days 15-28. […] Conclusions: Produce a significant reduction in body weight from vehicle treated controls by daily oral administration of Example 2 for 14 days to diet-induced obese (DIO), male Long-Evans rats maintained on a high-energy diet reduced food intake. Estimate the efficacy dose (T17) of 0.13 mg/kg/day for Example 2 for producing a change in body mass from control. Analyze changes in body composition to determine that the reduced body mass results from a significant reduction in fat mass at doses up to 10 mg/kg (the highest dose tested). Evaluate with a once daily oral administration of Example 2 for 14 days to two week olanzapine treated, female Sprague-Dawley rats to help to produce a significant reduction in fat mass compared to that of olanzapine treated controls.

For `Cc1cc2c(s1)Nc1ccccc1N=C2N1CCN(C)CC1` [olanzapine, reference compound], the “cumulative food intake, body weight and fat mass vs vehicle controls” value was “treatment emergent increases in cumulative food intake, body weight and fat mass”.
